The experiment relates to eosinophilic granulocytes in the lung. Description: Late-phase eosinophilia in actively sensitized guinea pigs, pulmonary lavage 24 h after allergen provocation. In kind it is in vivo. The settings on record: guinea pig.

SMILES strings stand for the structures.

For the compound `COc1ccc(CC(C)NCC(O)c2ccc(O)c(NC=O)c2)cc1` (stereo not shown), the Inhibition of eosinophilia is given as 4.1% (0.0001 mg/kg intrapulmonarily); “no inhibition or a marginal inhibition” (0.0001 mg/kg intrapulmonarily, listed as formoterol); 20.4% (0.001 mg/kg intrapulmonarily); “no inhibition or a marginal inhibition” (0.001 mg/kg intrapulmonarily, listed as formoterol).

Values taken from patent US7521438B1, “Combination of loteprednol and β2-adrenoceptor agonists” (MEDA Pharma GmbH & Co. KG, priority 1999, dated 2009).
